scFv variants of Ab-14 (light chain) against a SARS-CoV-2 spike peptide

The measurements come from Li et al. 2023 (doi:10.1038/s41467-023-39022-2) through the FLAb antibody collection.

The target is the same throughout: PDVDLGDISGINAS, from the HR2 region of SARS-CoV-2 spike.

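Phage display of a naive human antibody library on the peptide gave the parent. The variants were designed computationally from a first round of random CDR variants and then made and measured. Their group label is 14L_GP_Gibbs (GP: Gaussian process model; Gibbs: Gibbs sampling; a sequence that several methods proposed may carry one label only). The scFvs were displayed on barcoded MATa yeast, the peptide on MATalpha yeast. After mating in shaken culture at 30 °C for 16 h, diploids were selected and their barcode pairs sequenced. Each replicate has its own calibration line, from reference interactions of the BCL2 family. There are six technical replicates.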

The variants keep the heavy chain, the linker and the frameworks of Ab-14 (scFv order VH, a (GGGGS)3 linker, VL).
VH: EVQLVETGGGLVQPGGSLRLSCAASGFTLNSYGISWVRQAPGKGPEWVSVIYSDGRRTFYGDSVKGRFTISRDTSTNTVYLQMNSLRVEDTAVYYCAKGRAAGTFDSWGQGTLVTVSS
VL: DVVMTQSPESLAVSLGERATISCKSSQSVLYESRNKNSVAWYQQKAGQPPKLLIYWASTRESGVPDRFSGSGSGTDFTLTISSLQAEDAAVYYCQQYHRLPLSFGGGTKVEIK

Sequences are complete VL domains.
Numbers give log10(Kd / nM), so 0 is 1 nM and 3 is 1 µM. Smaller is tighter.
A sequence measured in both rounds can read differently, since the two assays cover different ranges.
In the paper, a design with two or fewer of six values counts as a poor binder.
Of ten entries with the parent sequence, four were seen in most replicates (averages 0.34 to 2.37), three in one and three in none, so single entries are noisy.
Nonspecific signal, from three strains lacking the peptide, appeared in 4% of pairings of all light chain designs, centred on 2.64 (5% of these signals below 1.59); values are not corrected for it. The control count says in how many pairings with the empty strains this scFv gave a signal, with their mean in brackets.

{"VL": "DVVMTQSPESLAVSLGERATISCKISQEDPMENRNKNSVAWYQQKAGQPPKLLIYHASLRESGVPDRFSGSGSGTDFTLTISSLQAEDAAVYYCQQYHRLPLSFGGGTKVEIK", "log10 Kd, replicates": "0.13 -0.01 -0.22 -0.54 -0.16 -0.02", "empty controls": "2 of 18 (3.10)"}
{"VL": "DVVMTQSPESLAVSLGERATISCKISQSVEYESRDKNSVAWYQQKAGQPPKLLIYNASTRCQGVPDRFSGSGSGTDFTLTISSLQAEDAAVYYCQQYHRLPLSFGGGTKVEIK", "log10 Kd, replicates": "0.17 0.00 0.28 -0.18 0.08 0.15", "empty controls": "0 of 18"}
{"VL": "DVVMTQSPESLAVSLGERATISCKVSPSWWYESRNKASVAWYQQKAGQPPKLLIYHASTRESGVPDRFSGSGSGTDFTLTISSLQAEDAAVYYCQQYHRLPLSFGGGTKVEIK", "log10 Kd, replicates": "0.17 0.17 0.40 -0.16 0.21 0.37", "empty controls": "1 of 18 (2.82)"}
{"VL": "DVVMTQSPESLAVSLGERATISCKMSQSVLMGGRNDNSVAWYQQKAGQPPKLLIYEASTREDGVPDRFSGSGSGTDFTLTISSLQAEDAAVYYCQQYHRLPLSFGGGTKVEIK", "log10 Kd, replicates": "0.15 -0.13 -0.04 -0.12 -0.08 0.13", "empty controls": "0 of 18"}
{"VL": "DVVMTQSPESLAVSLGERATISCKLSQSEPYEDRNKNSVAWYQQKAGQPPKLLIYNASYRCSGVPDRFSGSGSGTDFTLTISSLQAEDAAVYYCQQYHRLPLHFGGGTKVEIK", "log10 Kd, replicates": "1.15 0.73 0.59 0.75 0.12 0.58", "empty controls": "1 of 18 (1.93)"}
{"VL": "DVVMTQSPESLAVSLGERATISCKFSQLVLYESRAKNSVAWYQQKAGQPPKLLIYDASQRLSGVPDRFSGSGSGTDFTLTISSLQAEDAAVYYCQQYHRLPLSFGGGTKVEIK", "log10 Kd, replicates": "0.25 0.17 -0.07 -0.19 0.14 0.25", "empty controls": "0 of 18"}
{"VL": "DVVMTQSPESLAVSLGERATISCKLSTSWLYESRNVNAVAWYQQKAGQPPKLLIYEASTRMDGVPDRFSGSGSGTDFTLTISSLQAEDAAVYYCQQYHRLPLSFGGGTKVEIK", "log10 Kd, replicates": "0.14 0.10 -0.01 -0.12 0.24 0.05", "empty controls": "2 of 18 (2.31)"}
{"VL": "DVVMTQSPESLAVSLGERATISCKLSQEMEYESRNKNSVAWYQQKAGQPPKLLIYHASERESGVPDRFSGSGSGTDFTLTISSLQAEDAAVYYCQDYHRLPLQFGGGTKVEIK", "log10 Kd, replicates": "-0.10 -0.13 -0.18 -0.45 -0.63 -0.51", "empty controls": "0 of 18"}
{"VL": "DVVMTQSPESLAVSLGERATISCALQQLELYESRNKNSVAWYQQKAGQPPKLLIYNASTREDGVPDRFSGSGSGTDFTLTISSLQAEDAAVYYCQQYHRLPLSFGGGTKVEIK", "log10 Kd, replicates": "0.20 0.10 0.03 0.10 -0.10 0.03", "empty controls": "1 of 18 (2.85)"}
{"VL": "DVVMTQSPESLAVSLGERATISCKFSQEVWYESRNKNSVAWYQQKAGQPPKLLIYGASQRCSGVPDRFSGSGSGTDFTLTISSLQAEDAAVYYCQQYHRLPLSFGGGTKVEIK", "log10 Kd, replicates": "0.14 0.02 0.02 -0.05 0.23 0.09", "empty controls": "0 of 18"}
{"VL": "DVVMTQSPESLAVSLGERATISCKVSWSVGYGSRNKNSVAWYQQKAGQPPKLLIYEASTRESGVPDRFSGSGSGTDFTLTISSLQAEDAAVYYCQQYHRLPLYFGGGTKVEIK", "log10 Kd, replicates": "0.24 0.10 0.26 -0.26 -0.07 -0.08", "empty controls": "1 of 18 (1.47)"}
{"VL": "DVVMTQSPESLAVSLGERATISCKLSGSMLYQSRNSNAVAWYQQKAGQPPKLLIYEASQREQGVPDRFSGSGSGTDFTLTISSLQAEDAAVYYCQQYHRLPLSFGGGTKVEIK", "log10 Kd, replicates": "0.01 -0.23 -0.20 -0.36 -0.34 -0.18", "empty controls": "5 of 18 (2.27)"}
{"VL": "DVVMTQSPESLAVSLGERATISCHCSQSVGQEERQKNSVAWYQQKAGQPPKLLIYAASTREQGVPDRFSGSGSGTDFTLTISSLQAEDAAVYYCQQYHRLPLSFGGGTKVEIK", "log10 Kd, replicates": "0.55 0.22 0.25 0.28 0.51 0.30", "empty controls": "2 of 18 (2.24)"}
{"VL": "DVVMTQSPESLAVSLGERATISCKLSQSVEYESRDKNSVAWYQQKAGQPPKLLIYMAQTRLSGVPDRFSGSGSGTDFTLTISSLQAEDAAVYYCQQYHRLPLSFGGGTKVEIK", "log10 Kd, replicates": "0.65 0.22 1.73 0.25 0.68 0.57", "empty controls": "0 of 18"}
{"VL": "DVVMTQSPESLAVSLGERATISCKVFPSELGLSRNKMSVAWYQQKAGQPPKLLIYDASTRESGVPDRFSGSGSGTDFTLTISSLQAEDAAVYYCQQYHRLPLSFGGGTKVEIK", "log10 Kd, replicates": "0.25 0.10 0.27 -0.10 -0.38 0.10", "empty controls": "0 of 18"}
{"VL": "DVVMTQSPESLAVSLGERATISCKQSQSEGGESRNMNSVAWYQQKAGQPPKLLIYHASQRESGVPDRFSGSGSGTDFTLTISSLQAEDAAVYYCQQYHRLPLSFGGGTKVEIK", "log10 Kd, replicates": "0.09 0.03 0.01 -0.05 0.11 -0.09", "empty controls": "1 of 18 (2.46)"}